Assay results published in patent US20040039048A1, “Therapy with cannabinoid compounds for the treatment of brain tumors” (priority 2000, published 2004).

Test system: C6 glioblastoma cells
Test: C6 glioblastoma cells inoculated in rat brain; survival and magnetic resonance
Format: in vivo, Wistar rats
Source text: The injection of C6 glioblastoma cells in a rat brain is widely used as an experimental model for a malign brain tumor (Barth, R. F., J. Neurooncol. 36, 91-102, 1998). C6 glioblastoma cells were directly inoculated in the brain of Wistar rats and the tumors viewed by magnetic resonance. All animals left untreated died uniformly 12-18 days after inoculation with the cells (FIG. 3a). To evaluate the antitumoral potential of the cannabinoids, 12 days after inoculating the cells a group of animals was administered THC or WIN-55, 212-2 for 7 days through a cannula located at the site of inoculation. […] Thus, administration of cannabinoids managed to increase the survival time to 19-35 days in 9/15 of animals (treatment with THC) or to 19-43 days in 4/15 of animals (treatment with WIN-55, 212-2). Moreover, cannabinoids managed to completely eradicate the tumor in 3/15 of animals(treatment with THC) or 5/15 of animals (treatment with WIN-55, 212-2).
Male Wistar rats (250-300 g in body mass) were anaesthetized with 3% isofluorane in an oxygen mixture (0.8 l/min) and protoxide (0.4 l/min). 5×10^8 C6 glioblastoma cells were prepared in 100 μl of saline solution buffered with phosphate (PBS) and supplemented with 0.1% glucose, and stereotaxically injected in the frontal parietal lobule of the right hemisphere (4 mm to the right of bregma, 4.5 mm depth from the cranium) (Izquierdo, M et al., Gene Ther. 2, 66-69, 1995). The rats received dexamethasone (2 mg/l) and tetracycline (75 mg/kg of body weight) in water for 3 days before and 7 days after inoculation of the cells. A thorough monitoring of the tumors was performed by magnetic resonance with the methods described by other authors (Izquierdo, M et al., op cit; Cortés, M. L., de Felipe, P., Martin, V. Hughes, M. A. & Izquierdo, M. Gene Ther. 5, 1499-1507, 1998).
The administration of cannabinoids to rats began 12 days after inoculation of the cells. At this time the average size of the tumors was 70 mm^3 (interval 25-100 mm^3) as estimated by magnetic resonance (Izquierdo, M et al., op cit; Cortés, de Felipe, Martin, Hughes & Izquierdo, M, op cit.). Cannabinoids were administered by a cannula placed at the place of inoculation of the tumor and attached to the cranium by dental cement; a small stainless steel screw anchored the cannula and the dental cement. The cannula was subcutaneously connected by a catheter to an osmotic mini-pump (Alzet 2001) which operated at a flow of 1 μl/h for 7 days. The osmotic pump was filled with 500-2500 μg of THC or 50-250 μg of WIN-55,212-2 in 200 μl of PBS supplemented with 5 mg/l of bovine serum albumin (BSA), delipidized and dialyzed. The dose of cannabinoid employed depended on the characteristics of the tumor to be treated. Greater doses were used for large, dense and invasive tumors.

[1] = fraction of treated animals, 7 days through cannula from day 12

## CCCCCc1cc(O)c2c(c1)OC(C)(C)[C@@H]1CCC(C)=C[C@@H]21 [THC, Δ^9-tetrahydrocannabinol]
100 mm^3 glioblastoma, 500 μg of THC, image 7 days after ending treatment
  tumoral mass after treatment, magnetic resonance image of one rat: disappeared completely; also recorded: eradicated
Days after inoculation, in the responding animals, cannabinoid for 7 days through cannula at site of inoculation from day 12, untreated died 12-18 days
  survival time: 19 to 35 days
[1]
  animals with increased survival time: 9/15
  animals with tumor completely eradicated: 3/15

“Also recorded” adds a separate entry of the source.
